Values of other authors, collected in patent US20150033371A1, “HAIR FOLLICLE STEM CELLS AND METHODS OF USE SAME” (University of Southern California, priority 2011, published 2015).

System: gremlin
Settings: reported; cited from earlier work

B1: BMP-2: bone morphogenetic protein 2 (protein, UniProt P12643 283-396, looked up)
Bone morphogenetic protein 2: QAKHKQRKRLKSSCKRHPLYVDFSDVGWNDWIVAPPGYHAFYCHGECPFPLADHLNSTNHAIVQTLVNSVNSKIPKACCVPTELSAISMLYLDENEKVVLKNYQDMVVEGCGCR
- gremlin level: time- and dose-dependent increase in gremlin
